Assay results taken from article PMC5766103 (PLoS ONE, 2018).

Amino acid sequences for entries named in this document (tags omitted). Residues count along the entry.
UniProt Q16552, 24-155: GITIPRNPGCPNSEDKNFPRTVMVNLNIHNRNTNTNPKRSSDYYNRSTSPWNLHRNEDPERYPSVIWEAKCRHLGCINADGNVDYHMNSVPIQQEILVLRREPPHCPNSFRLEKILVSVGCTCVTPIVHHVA

Legend:
[1] = target: T1, IL-17A (Homo sapiens, UniProt Q16552); experiment: Surface plasmon resonance (BIAcore T200) binding of peptides to captured Avi-tagged IL-17A
T1 construct: His-tag; Flag-tag; made in house; host or cells: Sf9 insect cells (baculovirus)

[2] = system: human IL-17A; experiment: Cell-based neutralization assay: IL-17A-induced CXCL1/GROα in HT-29 cells; details: 60 ng/mL human IL-17A, peptide 10 μM, ~48 h, CXCL1/GROα ELISA, mean of duplicate treatments
[3] = system: IL-17RA:IL-17A; experiment: ELISA-based binding assay IL-17RA:IL-17A; assay type: biochemical, human; details: peptide 10 μM, biotinylated IL-17A 250 ng/mL pre-incubated 1 h with peptide, 30 min on IL-17RA-Fc plate, mean of duplicates
[4] = 8°C, 50 μl/min, 10 mM HEPES pH 7.5, 150 mM NaCl, 0.005% P20, 3% DMSO, global fit, 1:1 binding model

SPR ka1 [1, 4]: 224000 M⁻¹ s⁻¹
SPR kd1 [1, 4]: 0.00658 s⁻¹
fold higher affinity than parent peptide after affinity maturation ([1]; SPR affinity versus parent peptide): 5 fold
inhibition of human IL-17A binding to IL-17RA [3]: 82.5%
Compound: CC(C)C[C@H](NC(=O)[C@@H](N)CC(=O)O)C(=O)N[C@@H](CO)C(=O)N[C@@H](C)C(=O)N[C@H](C(=O)N[C@H]1CSSC[C@@H](C(=O)N[C@@H](Cc2c[nH]cn2)C(=O)O)NC(=O)[C@H](CCC(=O)O)NC(=O)[C@@H]2CCCN2C(=O)[C@H](CC(=O)O)NC(=O)[C@H](Cc2c[nH]c3ccccc23)NC(=O)[C@@H]2CCCN2C(=O)[C@H](Cc2ccccc2)NC(=O)[C@H](C)NC(=O)[C@H](Cc2c[nH]c3ccccc23)NC1=O)C(C)C [585–870]
inhibition of IL-17A-induced CXCL1 production [2]: 76.6%
